The values that follow are results of earlier work, collected in paper PMC12547689.

This data set has as its target GFP (Aequorea victoria) [GFP: P42212]. The conditions noted are these: cited from earlier work.

In the case of GFP (from UniProt P42212), the Kd (as a rule, the concentration at which binding is half-saturated) is 100 µM.
